Tested on: platelets
Assay: Take up rate of radioiodine-labeled metaraminol into platelets in coexistence with a medical compound
Conditions: Platelet, read-out: Take up rate of ^125 I-labeled metaraminol into platelets

| Structure (SMILES) | activity at 10 µM [%] | activity at 0.1 µM [%] |
| --- | --- | --- |
| CC1OC(OC2CC(O)C3(CO)C4C(O)CC5(C)C(C6=CC(=O)OC6)CCC5(O)C4CCC3(O)C2)C(O)C(O)C1O (centres unmarked) [Quabain] | 58.7 ± 10.2 |  |
| COC(=O)[C@H]1[C@H]2C[C@@H]3c4[nH]c5cc(OC)ccc5c4CCN3C[C@H]2C[C@@H](OC(=O)c2cc(OC)c(OC)c(OC)c2)[C@@H]1OC [Reserpine] |  | 47.3 ± 6.1 |

Reference: patent US4619823A, “Radioactive iodine labeled metaraminol and diagnostic agent containing platelets labeled therewith” (Nihon Medi-Physics Co., Ltd., priority 1983, dated 1986)
